Assay results from ChEMBL document CHEMBL5705890, “Antitumor activity of an allosteric inhibitor of centromere-associated protein-E” (Proc Natl Acad Sci U S A, 2010).

How the values were obtained:
COLO 201 = assay: Anticancer activity against human COLO201 cells assessed as cell doubling measured for 72 hrs by DAPI staining based analysis; format: functional
KM12 = assay: Anticancer activity against human KM12 cells assessed as cell doubling measured for 72 hrs by DAPI staining based analysis; format: functional

CC(C)Oc1ccc(C(=O)N[C@H](CNC(=O)CN(C)C)Cc2ccc(-c3cn4cccc([C@H](C)O)c4n3)cc2)cc1Cl [GSK-923295A]
Activity (COLO 201): 3.09
Activity (KM12): 3.1
